{
  "source": "PubChem BioAssay AID1671193",
  "about": "(National Center for Advancing Translational Sciences (NCATS), 2021)",
  "note": "The entries are a selection whose mix differs from that of the whole data set. Results filed as inconclusive are left out. Calls of active or inactive are those of the source. The call rests on the fitted dose curve; in most records, active means well fitted cell-killing curve with a large enough effect; inconclusive means small, poorly fitted or top-dose-only effect, or effect the other way; inactive means flat fitted curve, though single readings scatter.",
  "data": [
    {"test": "GF-AFC viability counterscreen for inhibitors of alpha-synuclein gene (SNCA) expression; further: nearly all actives have a fitted effect of over 30% in size", "settings": "HEK-293-SNCA-luc viability, GF-AFC fluorescence, 24 h; at 57.1 µM (top of the series) unless noted", "excerpt": "Assay Submitter (PI): Daniel R. Scoles Ph.D.\nDepartment of Neurology, University of Utah, Salt Lake City, Utah\nAccumulation of alpha-synuclein is a main underlying pathological feature of Parkinson's disease (PD) and alpha-synucleinopathies, for which lowering expression of the alpha-synuclein gene (SNCA) is a potential therapeutic avenue. Using a cell-based luciferase reporter of SNCA expression we performed a quantitative high throughput screen (qHTS) of 155,885 compounds in dose response. The screening assay was generated using genome editing to insert the luciferase gene downstream and in frame of the SNCA gene in HEK-293 cells (1). A viability counterscreen using GF-AFC was used to eliminate cytotoxic and false positive compounds. After in silico analysis (clustering, removal of frequent hitter nuisance chemotypes), inhibitor compounds from the primary screen were selected for follow up and re-tested at 11-doses in the SNCA-luc cells (luciferase and GF-AFC confirmation), and in CMV-luc expressing cell line to flag general transcriptional repressors.\nDescribed herein are the results of the GF-AFC viability counterscreen for SNCA inhibitors; inactivity (no decrease in fluorescence signal, not cytotoxic) is the desired output for this assay.\n1. Dansithong, W., Paul, S., Scoles, D. R., Pulst, S. M., and Huynh, D. P. (2015) Generation of SNCA Cell Models Using Zinc Finger Nuclease (ZFN) Technology for Efficient High-Throughput Drug Screening. PLoS ONE 10, e0136930.\nSEQUENCE No. (e.g., 1, 2, 3, etc.); […] (e.g., Cells, Incubation, Reagent, etc.); VALUE; DESCRIPTION\n1; Cells; 4 uL; Dispense 1500 HEK-293-SNCA-luc cells/well into Greiner 1536-well white / solid bottom tissue culture treated plate. The plate was covered with metal lids with gas-exchange holes.\n2; Incubate; 24 hours; Incubate at 37C, 5% CO2, 95% RH.\n3; Compounds; 23 nL; Compounds and controls were transferred via a Kalypsys Pin Tool (Wako USA) equipped with a 1536-slotted pin array. The plate was covered with metal lids with gas-exchange holes.\n4; Incubate; 24 hours; Incubate at 37C, 5% CO2, 95% RH.\n5; Dispense; 1 uL; Dispense Gly-Phe-7-amino-4-trifluoromethylcoumarin (GF-AFC, prepared at 125 uM in PBS) was added. The plate was covered with metal lids with gas-exchange holes.\n6; Incubate; 30 min; Incubate at 37C, 5% CO2.\n7; Detector; Fluorescence; Measure fluorescence with ViewLux microplate reader (PerkinElmer) equipped with 405/10 excitation and 540/25 emission filters.\n8; Dispense; 3 uL; Dispense ONE-Glo ([…]) lucifase detection reagent was added to each well. Plates were covered with metal lids with gas-exchange holes.\n9; Incubate; 15 min; Incubate at room temperature.\n10; Detector; Luminescence; Measure luminescence with ViewLux microplate reader (PerkinElmer) equipped with clear filters.\nNOTES (numbers refer to sequence above)\n1; HEK-293-SNCA-luc were cultured and suspended in phenol-red free DMEM (4.5 g/L glucose, 25 mM HEPES, cat #21063 (Thermo)).\n3; Compounds were added to the assay plate in an 11-point intra plate dose response, 1:3 titration in DMSO with a final concentration range of […]. Vehicle-only plates, with DMSO being pin-transferred to every well, were inserted at the beginning of screening runs to confirm expected assay performance. Activity was normalized to wells containing medium only (-100% activity, full inhibition) and SNCA-luc cells treated with DMSO vehicle control (0% activity), contained on the same plate as test samples.\n10; Signals were analyzed, and dose-response curves were fit using the Hill equation. Compounds in curve classes -1.1, -1.2, -2.1, -2.2 in the SNCA-luc assay were considered active. Compounds were eliminated from further consideration if also active (curve class -1.1, -1.2, -1.3, -1.4, -2.1, -2.2, -2.3, -2.4) in the GF-AFC cytotoxicity assay.", "values": [
      {"smiles": "Cc1ccccc1C(=O)NCC1(N(C)C)CCCCC1", "activity change, negative = cytotoxicity": "inactive: -8.44%"},
      {"smiles": "CC(C)(C)c1ccc(C(=O)NCC2(N3CCOCC3)CCCCC2)cc1", "activity change, negative = cytotoxicity": "inactive: 9.71%"},
      {"smiles": "CN(C)C1(CNC(=O)c2ccc(C(C)(C)C)cc2)CCCCC1", "activity change, negative = cytotoxicity": "inactive: -5.12%"},
      {"smiles": "CC(=O)N1CCc2ccc(N(C(=O)/C=C/c3cccc(C#N)c3)C3CCN(CCC4CCCC4)CC3)cc21", "activity change, negative = cytotoxicity": "inactive: -16.7%"},
      {"smiles": "COc1cc(C(=O)NCC2(N3CCOCC3)CCCCC2)cc(OC)c1OC", "activity change, negative = cytotoxicity": "inactive: -6.55%"},
      {"smiles": "CCC(=O)N(c1ccccc1)C1CCNCC1", "activity change, negative = cytotoxicity": "inactive: -15.4% [at 23.9 µM]"},
      {"smiles": "O=C(NCC1(N2CCOCC2)CCCCC1)c1ccccc1", "activity change, negative = cytotoxicity": "inactive: -7.91%"},
      {"smiles": "O=C(NCC1(N2CCOCC2)CCCCC1)c1ccccc1[N+](=O)[O-]", "activity change, negative = cytotoxicity": "inactive: 6.6%"},
      {"smiles": "O=C(NCC1(N2CCOCC2)CCCCC1)c1ccc([N+](=O)[O-])cc1", "activity change, negative = cytotoxicity": "inactive: 2.46%"},
      {"smiles": "CCCOc1cccc(C(=O)NCC2(N3CCOCC3)CCCCC2)c1", "activity change, negative = cytotoxicity": "inactive: -10.7%"},
      {"smiles": "CCOc1ccc(C(=O)NCC2(N3CCOCC3)CCCCC2)cc1", "activity change, negative = cytotoxicity": "inactive: 0.807%"},
      {"smiles": "O=C(NCC1(N2CCOCC2)CCCCC1)c1ccccc1Br", "activity change, negative = cytotoxicity": "inactive: -5.43%"},
      {"smiles": "CCOC(=O)N1CCC(=O)CC1", "activity change, negative = cytotoxicity": "inactive: 1.28% [at 23.9 µM]"},
      {"smiles": "CCOC(=O)C(=O)CBr", "activity change, negative = cytotoxicity": "inactive: -3.7%"},
      {"smiles": "O=C(NCC1(N2CCOCC2)CCCCC1)c1ccc(Cl)cc1", "activity change, negative = cytotoxicity": "inactive: -3.03%"},
      {"smiles": "COc1ccccc1C(=O)NCC1(N2CCOCC2)CCCCC1", "activity change, negative = cytotoxicity": "inactive: -16.2%"}
    ]}
  ]
}
